How the values were obtained:
[1] = biological target: T1, CRF2R (Homo sapiens, UniProt Q13324); experiment: CRF2R agonist activity (EC50 and Emax), called comparative CRF binding; format: cell-based; details: CRF2R; for EC50: CRF2R EC50 (nM)
T1 sequence (Q13324 1-411): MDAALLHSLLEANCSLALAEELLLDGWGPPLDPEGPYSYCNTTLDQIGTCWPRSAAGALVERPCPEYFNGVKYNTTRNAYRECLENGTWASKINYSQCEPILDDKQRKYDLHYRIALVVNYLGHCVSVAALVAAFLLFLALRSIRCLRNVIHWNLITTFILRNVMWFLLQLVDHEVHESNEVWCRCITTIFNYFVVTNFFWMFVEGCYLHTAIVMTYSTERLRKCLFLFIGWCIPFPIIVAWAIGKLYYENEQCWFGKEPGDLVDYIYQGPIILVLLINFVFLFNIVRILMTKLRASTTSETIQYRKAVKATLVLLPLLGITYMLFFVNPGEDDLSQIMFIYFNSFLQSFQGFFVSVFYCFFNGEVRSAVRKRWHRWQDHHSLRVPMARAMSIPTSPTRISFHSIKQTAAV
Method in brief: (§1)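 Agonism is scored by Gαs-driven cAMP rise in cells carrying CRF1R or CRF2R alone, with vehicle-treated cells as control.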

[2] = biological target: T2, CRF1R (Homo sapiens, UniProt P34998); experiment: CRF1R agonist activity (EC50 and Emax), called comparative CRF binding; format: cell-based; details: CRF1R; for EC50: CRF1R EC50 (nM)
T2 sequence (P34998 24-415): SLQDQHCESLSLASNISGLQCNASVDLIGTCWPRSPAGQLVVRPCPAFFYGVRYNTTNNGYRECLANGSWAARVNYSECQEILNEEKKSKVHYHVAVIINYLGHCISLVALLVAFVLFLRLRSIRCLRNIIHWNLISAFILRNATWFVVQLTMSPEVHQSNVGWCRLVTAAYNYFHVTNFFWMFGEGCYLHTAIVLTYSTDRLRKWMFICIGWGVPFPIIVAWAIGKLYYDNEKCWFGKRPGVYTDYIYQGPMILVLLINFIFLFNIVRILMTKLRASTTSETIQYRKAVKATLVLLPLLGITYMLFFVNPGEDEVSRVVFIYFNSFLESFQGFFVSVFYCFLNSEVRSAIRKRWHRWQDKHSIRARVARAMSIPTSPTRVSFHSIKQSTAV
Method in brief: as §1

| SMILES | EC50 [1] [nM] | EC50 [2] [nM] | CRF2R (Emax %) ([1]; Emax) | CRF1R (Emax %) ([2]; Emax) |
| --- | --- | --- | --- | --- |
| CC[C@H](C)[C@H](NC(=O)[C@@H](NC(=O)[C@H](CC(=O)O)NC(=O)[C@H](CC(C)C)NC(=O)[C@H](CC(C)C)NC(=O)[C@H](CC(C)C)NC(=O)[C@H](CCCNC(=N)N)NC(=O)[C@H](CC(N)=O)NC(=O)[C@H](CC(N)=O)NC(=O)[C@H](C)NC(=O)[C@H](C)NC(=O)[C@H](CCC(N)=O)NC(=O)[C@H](CCC(N)=O)NC(=O)[C@H](CCCCN)NC(=O)[C@H](CCC(=O)O)NC(=O)[C@H](CCCCN)NC(=O)[C@H](CCC(=O)O)NC(=O)[C@H](CCC(N)=O)NC(=O)[C@H](CCCCN)NC(=O)[C@H](CCC(=O)O)NC(=O)[C@@H](NC(=O)[C@H](CCC(=O)O)NC(=O)[C@@H](NC(=O)[C@H](CCSC)NC(=O)[C@H](CCCCN)NC(=O)[C@H](CCCNC(=N)N)NC(=O)[C@H](CC(C)C)NC(=O)[C@H](CC(C)C)NC(=O)[C@H](Cc1c[nH]c2ccccc12)NC(=O)[C@H](Cc1ccccc1)NC(=O)[C@@H]1CCCN1C(=O)[C@H](CC(C)C)NC(=O)[C@H](CC(=O)O)NC(=O)[C@@H](NC(=O)[C@H](CO)NC(=O)[C@@H](NC(=O)[C@@H]1CCCN1C(=O)[C@@H]1CCCN1C(=O)CNC(=O)[C@@H]1CCC(=O)N1)[C@@H](C)CC)[C@@H](C)CC)[C@@H](C)CC)[C@@H](C)CC)[C@@H](C)O)C(N)=O [compound 217] | 4.7 | 94.7 |  |  |
| CC[C@H](C)[C@H](NC(=O)[C@@H](NC(=O)[C@H](CC(=O)O)NC(=O)[C@H](CC(C)C)NC(=O)[C@H](CC(C)C)NC(=O)[C@H](CC(C)C)NC(=O)[C@H](CCCNC(=N)N)NC(=O)[C@H](CC(N)=O)NC(=O)[C@H](CC(N)=O)NC(=O)[C@H](C)NC(=O)[C@H](C)NC(=O)[C@H](CCC(N)=O)NC(=O)[C@H](CCC(N)=O)NC(=O)[C@H](CCCCN)NC(=O)[C@H](CCC(=O)O)NC(=O)[C@H](CCCCN)NC(=O)[C@H](CCC(=O)O)NC(=O)[C@H](CCC(N)=O)NC(=O)[C@H](CCCCN)NC(=O)[C@H](CCC(=O)O)NC(=O)[C@@H](NC(=O)[C@H](CCC(=O)O)NC(=O)[C@@H](NC(=O)[C@H](CCSC)NC(=O)[C@H](CCCCN)NC(=O)[C@H](CCCNC(=N)N)NC(=O)[C@H](CC(C)C)NC(=O)[C@H](CC(C)C)NC(=O)[C@H](CCCNC(=N)N)NC(=O)[C@@H](NC(=O)[C@@H]1CCCN1C(=O)[C@H](CC(C)C)NC(=O)[C@H](CC(=O)O)NC(=O)[C@@H](NC(=O)[C@H](CO)NC(=O)[C@@H](NC(=O)[C@@H]1CCCN1C(=O)[C@@H]1CCCN1C(=O)CNC(=O)[C@@H]1CCC(=O)N1)[C@@H](C)CC)[C@@H](C)CC)[C@@H](C)O)[C@@H](C)CC)[C@@H](C)CC)[C@@H](C)O)C(N)=O [compound 60] | > 100 | > 100 |  |  |
| CC[C@H](C)[C@H](NC(=O)[C@H](CCCNC(=N)N)NC(=O)[C@H](C)NC(=O)[C@H](CC(C)C)NC(=O)[C@H](CC(C)C)NC(=O)[C@H](CCCNC(=N)N)NC(=O)[C@H](C)NC(=O)[C@H](CC(N)=O)NC(=O)[C@H](CC(N)=O)NC(=O)[C@H](C)NC(=O)[C@H](C)NC(=O)[C@H](CCC(N)=O)NC(=O)[C@H](CCC(N)=O)NC(=O)[C@H](CCCCN)NC(=O)[C@H](CCC(=O)O)NC(=O)[C@H](CCCCN)NC(=O)[C@H](CCC(=O)O)NC(=O)[C@H](CCC(N)=O)NC(=O)[C@H](CCCCN)NC(=O)[C@H](CCC(=O)O)NC(=O)[C@@H](NC(=O)[C@H](CCC(=O)O)NC(=O)[C@@H](NC(=O)[C@H](CCSC)NC(=O)[C@H](CCCCN)NC(=O)[C@H](CCCNC(=N)N)NC(=O)[C@H](CC(C)C)NC(=O)[C@H](CC(C)C)NC(=O)[C@@H](NC(=O)[C@@H](NC(=O)[C@@H]1CCCN1C(=O)[C@H](CC(C)C)NC(=O)[C@H](CC(=O)O)NC(=O)[C@@H](NC(=O)[C@H](CO)NC(=O)[C@@H](NC(=O)[C@@H]1CCCN1C(=O)[C@@H]1CCCN1C(=O)CNC(=O)[C@@H]1CCC(=O)N1)[C@@H](C)CC)[C@@H](C)CC)[C@@H](C)CC)[C@@H](C)CC)[C@@H](C)CC)[C@@H](C)CC)C(N)=O [compound 290] | ≥ 100 | ≥ 1000 |  |  |
| CC[C@H](C)[C@H](NC(=O)[C@@H](NC(=O)[C@H](CC(=O)O)NC(=O)[C@H](CC(C)C)NC(=O)[C@H](CC(C)C)NC(=O)[C@H](CC(C)C)NC(=O)[C@H](CCCNC(=N)N)NC(=O)[C@H](CC(N)=O)NC(=O)[C@H](CC(N)=O)NC(=O)[C@H](C)NC(=O)[C@H](C)NC(=O)[C@H](CCC(N)=O)NC(=O)[C@H](CCC(N)=O)NC(=O)[C@H](CCCCN)NC(=O)[C@H](CCC(=O)O)NC(=O)[C@H](CCCCN)NC(=O)[C@H](CCC(=O)O)NC(=O)[C@H](CCC(N)=O)NC(=O)[C@H](CCCCN)NC(=O)[C@H](CCC(=O)O)NC(=O)[C@@H](NC(=O)[C@H](CCC(=O)O)NC(=O)[C@@H](NC(=O)[C@H](CCSC)NC(=O)[C@H](CCCCN)NC(=O)[C@H](CCCNC(=N)N)NC(=O)[C@H](CC(C)C)NC(=O)[C@H](CC(C)C)NC(=O)[C@H](CCCCN)NC(=O)[C@@H](NC(=O)[C@@H]1CCCN1C(=O)[C@H](CC(C)C)NC(=O)[C@H](CC(=O)O)NC(=O)[C@@H](NC(=O)[C@H](CO)NC(=O)[C@@H](NC(=O)[C@@H]1CCCN1C(=O)[C@@H]1CCCN1C(=O)CNC(=O)[C@@H]1CCC(=O)N1)[C@@H](C)CC)[C@@H](C)CC)[C@@H](C)O)[C@@H](C)CC)[C@@H](C)CC)[C@@H](C)O)C(N)=O [compound 45] | > 100 | > 1000 |  |  |
| CC[C@H](C)[C@H](NC(=O)[C@@H](NC(=O)[C@H](CC(=O)O)NC(=O)[C@H](CC(C)C)NC(=O)[C@H](CC(C)C)NC(=O)[C@H](CC(C)C)NC(=O)[C@H](CCCNC(=N)N)NC(=O)[C@H](CC(N)=O)NC(=O)[C@H](CC(N)=O)NC(=O)[C@H](C)NC(=O)[C@H](C)NC(=O)[C@H](CCC(N)=O)NC(=O)[C@H](CCC(N)=O)NC(=O)[C@H](CCCCN)NC(=O)[C@H](CCC(=O)O)NC(=O)[C@H](CCCCN)NC(=O)[C@H](CCC(=O)O)NC(=O)[C@H](CCC(N)=O)NC(=O)[C@H](CCCCN)NC(=O)[C@H](CCC(=O)O)NC(=O)[C@@H](NC(=O)[C@H](CCC(=O)O)NC(=O)[C@@H](NC(=O)[C@H](CCSC)NC(=O)[C@H](CCCCN)NC(=O)[C@H](CCCNC(=N)N)NC(=O)[C@H](CC(C)C)NC(=O)[C@H](CC(C)C)NC(=O)[C@H](C)NC(=O)[C@@H](NC(=O)[C@@H]1CCCN1C(=O)[C@H](CC(C)C)NC(=O)[C@H](CC(=O)O)NC(=O)[C@@H](NC(=O)[C@H](CO)NC(=O)[C@@H](NC(=O)[C@@H]1CCCN1C(=O)[C@@H]1CCCN1C(=O)CNC(=O)[C@@H]1CCC(=O)N1)[C@@H](C)CC)[C@@H](C)CC)[C@@H](C)CC)[C@@H](C)CC)[C@@H](C)CC)[C@@H](C)O)C(N)=O [compound 47] | > 100 | ≥ 1000 | (66) % | (12) % |
| CC[C@H](C)[C@H](NC(=O)[C@H](CCC(=O)O)NC(=O)[C@@H](NC(=O)[C@H](CCSC)NC(=O)[C@H](CCCCN)NC(=O)[C@H](CCCNC(=N)N)NC(=O)[C@H](CC(C)C)NC(=O)[C@H](CC(C)C)NC(=O)[C@H](CCC(N)=O)NC(=O)[C@H](Cc1ccccc1)NC(=O)[C@@H]1CCCN1C(=O)[C@H](CC(C)C)NC(=O)[C@H](CC(=O)O)NC(=O)[C@@H](NC(=O)[C@H](CO)NC(=O)[C@@H](NC(=O)[C@@H]1CCCN1C(=O)[C@@H]1CCCN1C(=O)CNC(=O)[C@@H]1CCC(=O)N1)[C@@H](C)CC)[C@@H](C)CC)[C@@H](C)CC)C(=O)N[C@@H](CCC(=O)O)C(=O)N[C@@H](CCCCN)C(=O)N[C@@H](CCC(N)=O)C(=O)N[C@@H](CCC(=O)O)C(=O)N[C@@H](CCCCN)C(=O)N[C@@H](CCC(=O)O)C(=O)N[C@@H](CCCCN)C(=O)N[C@@H](CCC(N)=O)C(=O)N[C@@H](CCC(N)=O)C(=O)N[C@@H](C)C(=O)N[C@H](C(=O)N[C@H](C(=O)N[C@@H](CC(N)=O)C(=O)N[C@@H](CCCNC(=N)N)C(=O)N[C@@H](CC(C)C)C(=O)N[C@@H](CC(C)C)C(=O)N[C@@H](CC(C)C)C(=O)N[C@@H](CC(=O)O)C(=O)N[C@H](C(=O)N[C@H](C(N)=O)C(C)C)[C@@H](C)O)[C@@H](C)O)[C@@H](C)O [compound 16] | 7.88 | 136 |  |  |

Reference: patent US7632933B2, “Corticotropin releasing factor 2 receptor agonists” (priority 2002, dated 2009)
